Legend:
mouse RGCs [1] = assay: RGC neurite growth in purified primary mouse RGC culture (high-content screening); type: cell-based; conditions: mouse RGCs in vitro, dosage-dependent
mouse RGCs [2] = assay: RGC survival in purified primary mouse RGC culture (high-content screening, Calcein AM/Hoechst/Ethidium Homodimer-1); type: cell-based; conditions: mouse RGCs in vitro, dosage-dependent

CCN(CC)CCNC(=O)c1c(C)[nH]c(/C=C2\C(=O)Nc3ccc(F)cc32)c1C [sunitinib, N-[2-(diethylamino)ethyl]-5-[(Z)-(5-fluoro-1,2-dihydro-2-oxo-3H-indol-3-ylidine)methyl]-2,4-dimethyl-1H-pyrrole-3-carboxamide]
concentration of peak neurite-promoting activity (mouse RGCs [1]): 500 nM | concentration of peak neuroprotective activity (mouse RGCs [2]): 1 µM
